Measured values: patent US20080287478A1 (priority 2003, published 2008)

Tested on: male NMRI mice
Assay: Gridshock test (pain threshold, CNS effect)
Settings: i.v.

CC(C)C1CCC(N2CCC3(CC2)C(=O)NCN3c2ccccc2)CC1 (stereo not shown)
dose at which statistical significant analgesia was observed: 1000 nmol/kg and 2000 nmol/kg

Several values for one entry are separate records, joined by “and”; a condition that tells them apart may be missing. Identical values can stand only once.
